Test results from patent US10023614B2.

Sequences of proteins named here, by UniProt entry; tags and fusion partners are left off. Residues count along the entry.
UniProt F1LX96, 1-639: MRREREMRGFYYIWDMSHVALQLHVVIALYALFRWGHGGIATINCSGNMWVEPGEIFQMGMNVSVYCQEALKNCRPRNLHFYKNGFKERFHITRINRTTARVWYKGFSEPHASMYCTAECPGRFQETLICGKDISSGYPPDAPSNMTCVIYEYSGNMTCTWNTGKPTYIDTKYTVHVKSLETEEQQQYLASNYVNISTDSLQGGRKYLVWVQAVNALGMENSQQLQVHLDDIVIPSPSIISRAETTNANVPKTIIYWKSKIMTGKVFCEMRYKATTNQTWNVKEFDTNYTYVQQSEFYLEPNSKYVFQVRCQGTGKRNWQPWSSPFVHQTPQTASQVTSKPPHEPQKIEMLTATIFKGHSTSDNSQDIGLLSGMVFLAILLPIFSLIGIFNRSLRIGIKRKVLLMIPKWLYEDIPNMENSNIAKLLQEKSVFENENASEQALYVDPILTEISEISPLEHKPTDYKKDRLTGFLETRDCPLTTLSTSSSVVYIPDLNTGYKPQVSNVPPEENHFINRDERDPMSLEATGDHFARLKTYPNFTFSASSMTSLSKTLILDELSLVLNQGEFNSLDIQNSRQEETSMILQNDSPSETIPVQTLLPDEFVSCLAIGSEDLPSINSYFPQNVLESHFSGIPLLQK

Target: Rat IL-23R (Rattus norvegicus, UniProt F1LX96)
Experiment: Rat IL-23R Competitive Binding ELISA
Settings: read-out: Cross Reactivity, ELISA rat IL23R IL23

Compound: CC(=O)N[C@H]1CSSC[C@@H](C(=O)N[C@@H](Cc2ccc(O)cc2)C(=O)N[C@@H](Cc2c[nH]c3ccccc23)C(=O)N[C@@H](CCCNC(N)=O)C(=O)N[C@@H](CN)C(=O)N[C@@H](Cc2ccccc2)C(=O)NCC(=O)NCCOCC(=O)N[C@H](CCCCN)C(N)=O)NC(=O)[C@H](CCC(N)=O)NC(=O)[C@H](Cc2c[nH]c3ccccc23)NC(=O)[C@H]([C@@H](C)O)NC(=O)[C@H](CCC(N)=O)NC1=O
- IC50: 1 to 10 µM
